The structures appear in SMILES notation.

By UniProt entry, the sequences of proteins in these tests, tags left out.
UniProt P14902, whole entry: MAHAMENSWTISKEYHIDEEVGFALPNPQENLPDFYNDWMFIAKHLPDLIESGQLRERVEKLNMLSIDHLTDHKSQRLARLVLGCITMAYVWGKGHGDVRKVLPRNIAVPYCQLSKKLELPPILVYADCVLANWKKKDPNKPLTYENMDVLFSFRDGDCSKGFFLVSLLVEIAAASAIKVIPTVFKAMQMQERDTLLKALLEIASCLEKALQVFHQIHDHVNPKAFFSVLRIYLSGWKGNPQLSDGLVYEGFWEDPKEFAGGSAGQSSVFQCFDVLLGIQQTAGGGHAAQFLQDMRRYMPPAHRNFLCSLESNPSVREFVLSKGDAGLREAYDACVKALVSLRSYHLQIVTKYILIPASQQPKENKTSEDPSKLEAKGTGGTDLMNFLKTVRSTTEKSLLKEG

This is an account of results in patent US10336731B2, “Substituted 1H-indole-2-carboxamide compounds as indoleamine-2,3-dioxygenase inhibitors” (Merck Sharp & Dohme Corp., priority 2015, dated 2019).

One assay deals with human IDO protein (Homo sapiens (Human), UniProt P14902). The experiment in a line: IDO biochemical coupled assay (formamidase, Ehrlich's reagent). Particulars: 0.17 μM human IDO, 120 min pre-incubation, 45 μM L-Trp. The text has this:
(§1) For REF1-REF3 and Compounds 1-11, two different types of assay were employed: 1. An IDO biochemical coupled assay which utilised recombinantly produced and purified IDO enzyme in combination with the enzyme formamidase. This coupled enzyme system allowed conversion of N-formylkynurenine produced by IDO activity to kynurenine which was then quantified by fluorescence following addition of Erhlich's Reagent. 2. A cell-based assay for detecting the effect of test compounds on kynurenine production in cancer cells. This assay utilised cancer cells which expressed IDO and as such was used as a means of testing compound activity at the enzyme in a cell-based context. The protocols for these are set out below.
0.17 μM of human IDO protein was pre-incubated for 120 min at RT with test compounds in the presence of 50 mM KPO4, pH 7.0, 0.5 mM EDTA, 0.5 mM EGTA, 0.05% Triton X-100, 20 mM ascorbate, 500 U/ml catalase, 10 μM methylene blue at RT in a 384 well plate. 0.05 μg/μl kynurenine formamidase and 45 μM L-tryptophan (L-Trp) were added and the assays were incubated at RT for 40 min. Assays were stopped and the level of kynurenine was determined by incubation with Ehrlich's reagent to a final concentration of 1.33% at RT for 5 min. Fluorescence intensity was read at 475 nm/530 nm.

A further assay addresses IDO (SKOV-3 cells) (Homo sapiens (Human), UniProt P14902). Nature of the assay: IDO cell-based assay (kynurenine production in IFNγ-induced SKOV-3 cells). Particulars: IFNγ 500 ng/ml, 500 μM L-Trp, 48 h.
Text: as §1
SKOV-3 ovary adenocarcinoma (ATCC) cells were grown in McCoys 5A+L-glutamax medium supplemented with 15% foetal bovine serum. On the day of assay, cells were detached using trypsin-EDTA (0.25% v/v), re-suspended in assay media (RPMI 1640 phenol red free+L-glutamine supplemented with 10% dialysed foetal bovine serum). SKOV-3 cells were seeded at 40K cells per well into 96-well plates containing test samples/vehicle control together with 500 μM L-Trp. Cells were then incubated for 48 h at 37° C. 5% CO2. IFNγ was also added at 500 ng/ml for the 48 h incubation in order to induce expression of IDO. Plates were centrifuged and the supernatant was removed and incubated for 5 min in the presence of 1% Erhlich's reagent. Kynurenine levels were then quantified by measuring absorbance at 490 nm.

In the case of `CC1CC1(NC(=O)c1cc2cc(Cl)ccc2[nH]1)c1cnn(C)c1` (single isomer, unassigned) [Compound 1, (+) 1], at human IDO protein, the “hIDO biochemical assay pIC50” value amounted to 6.40. On IDO (SKOV-3 cells), the “pIC50, IDO cellular assay (SKOV3)” value is on record as 7.38. For the compound `CC1CC1(NC(=O)c1cc2c(F)c(Cl)ccc2[nH]1)c1cnn(C)c1` (racemic), the “hIDO biochemical assay pIC50” value at human IDO protein is recorded as 5.87. The “pIC50, IDO cellular assay (SKOV3)” value at IDO (SKOV-3 cells) worked out at 7.06. With `CC1CC1(NC(=O)c1cc2cc(Cl)ccc2[nH]1)c1cnn(C)c1` (racemic), on human IDO protein, the “hIDO biochemical assay pIC50” value is 5.90. In addition, the “pIC50, IDO cellular assay (SKOV3)” value at IDO (SKOV-3 cells) came out at 7.10. As for `CC1CC1(NC(=O)c1cc2cc(Cl)ccc2[nH]1)c1cnn(C)c1` (single isomer, unassigned) [Compound 1, (−) 1], the “hIDO biochemical assay pIC50” value at human IDO protein is 5.77. Also, on IDO (SKOV-3 cells), the “pIC50, IDO cellular assay (SKOV3)” value is recorded as 6.44. As for `C[C@@H]1C[C@]1(NC(=O)c1cc2cc(Br)ccc2[nH]1)c1cnn(C)c1` (single isomer, unassigned) [Compound 2, (+) 2], the “hIDO biochemical assay pIC50” value at human IDO protein is given as 6.42. The “pIC50, IDO cellular assay (SKOV3)” value at IDO (SKOV-3 cells) was 7.67. On to `C[C@@H]1C[C@]1(NC(=O)c1cc2cc(Br)ccc2[nH]1)c1cnn(C)c1` (single isomer, unassigned) [Compound 2, (−) 2], for which the “hIDO biochemical assay pIC50” value at human IDO protein came to 5.54. Moreover, the “pIC50, IDO cellular assay (SKOV3)” value on IDO (SKOV-3 cells) is listed as 6.55.

In the case of `CC1CC1(NC(=O)c1cc2cc(Cl)ccc2[nH]1)c1cnn(-c2ccccc2)c1` (single isomer, unassigned) [Compound 8, enantiomer 2], at IDO (SKOV-3 cells), the “pIC50, IDO cellular assay (SKOV3)” value amounted to 7.83. Still for that read-out and setting: with `CC1CC1(NC(=O)c1cc2cc(Cl)ccc2[nH]1)c1cnn(-c2ccccc2)c1` (single isomer, unassigned) [Compound 8, enantiomer 1] the figure was 7.73.
